The source of these data is ChEMBL document CHEMBL5370523, “Clinically approved small-molecule drugs for the treatment of rheumatoid arthritis” (Eur J Med Chem, 2023).

Sequences of proteins named here, by UniProt entry; tags and fusion partners are left off.
UniProt P23219, whole entry: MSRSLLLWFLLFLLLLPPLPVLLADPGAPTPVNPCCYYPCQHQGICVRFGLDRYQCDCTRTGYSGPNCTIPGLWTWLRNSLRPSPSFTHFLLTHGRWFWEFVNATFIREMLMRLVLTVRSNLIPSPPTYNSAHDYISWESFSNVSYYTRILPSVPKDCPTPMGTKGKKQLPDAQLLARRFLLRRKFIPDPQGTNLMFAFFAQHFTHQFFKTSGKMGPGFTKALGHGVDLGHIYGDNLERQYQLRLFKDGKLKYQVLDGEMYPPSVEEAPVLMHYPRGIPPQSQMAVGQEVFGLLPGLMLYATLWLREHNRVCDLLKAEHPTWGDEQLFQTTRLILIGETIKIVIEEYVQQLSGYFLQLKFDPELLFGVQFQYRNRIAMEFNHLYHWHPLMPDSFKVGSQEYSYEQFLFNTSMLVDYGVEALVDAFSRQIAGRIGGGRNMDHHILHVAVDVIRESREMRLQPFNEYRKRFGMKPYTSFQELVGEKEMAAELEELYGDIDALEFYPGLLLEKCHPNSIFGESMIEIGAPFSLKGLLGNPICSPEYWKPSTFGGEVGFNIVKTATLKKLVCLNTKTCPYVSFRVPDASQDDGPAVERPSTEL

This assay addresses Prostaglandin G/H synthase 1 (Homo sapiens, UniProt P23219). The format is cell-based, Platelet.

One may read the IC50 as the point on the concentration scale where inhibition reaches its midpoint. Read a low IC50 as greater potency.

With `O=C(O)CCc1nc(-c2ccccc2)c(-c2ccccc2)o1` [OXAPROZIN], the IC50 is 2.2 µM.
